What was measured:
[1] = cited from earlier work
[2] = higher concentrations polymerize; cited from earlier work
[3] = without stabilizer
[4] = at 25° C.; cited from earlier work

Substance: orthosilicic acid
- solubility above pH 9.0 ([1]; above pH 9.0, silicic acid ionized): solubility increases quickly
- solubility in pure water ([1]; pure water): slightly soluble
- concentration below which the monomer is relatively stable [2]: < 10^−4 M
- concentration until which it is relatively stable in solution [3]: about 1 mg/100 mL
- pK1 [4]: 9.8
- pK2 [4]: 12

From patent publication US20090215723A1, “Organic silicic acids complex for therapeutic and cosmetic applications” (priority 2005, published 2009)
